Test results from PMC9649909, “Wnt-pathway inhibitors with selective activity against triple-negative breast cancer: From thienopyrimidine to quinazoline inhibitors” (Frontiers in Pharmacology, 2022).

Tested on: non-cancerous breast epithelial cell line MCF10a
Test: MTT survival assay MCF10a
Format: cell-based
Details: Table S2
Method: Indicated TNBC cell lines were detached and resuspended at 120,000 cells/ml and added into each well of a transparent 384-well plate in the final volume of 20 µl/well. The cells were maintained in DMEM containing 10% FBS at 37°C, 5% CO2 overnight. Next day, the medium in each well was replaced by 40 μl of the fresh one containing the indicated concentrations of compounds. In case of drug combination experiments, each compound dilution was delivered in corresponding well in 20 μl of medium. […] After incubation for 3–4 days, depending on the cell line, the medium in each well was replaced by 25 μl of 0.5 mg/ml Thiazolyl blue solution in 1xPBS following by incubation for 3 h at 37°C. Then the solution was removed and 25 μl DMSO was added into each well. Absorbance at 510 nm was measured in a Tecan Infinite M200 PRO plate reader.

## Clc1ccc(CNc2ncnc3ccccc23)cc1 [Compound 9e, N-(4-chloro)quinazolin-4-amine]
  MTT MCF10 Comments: Inactive
